The record followed here is patent US8362236B2, “Macrocyclic compound” (Chugai Seiyaku Kabushiki Kaisha, priority 2007, dated 2013).

The target in the assay is T1, Human HSP90 alpha (Homo sapiens, UniProt P07900).
T1 construct: His tag (inferred from purification on a HisPrep FF column); made in house; host or cells: E. coli BL21 codon plus (Stratagene)
Nature of the assay: Assay for the activity of inhibiting HSP90 enzyme (ATPase, malachite green). The format is biochemical. Particulars: Enzyme-inhibiting activity (IC50, μM) Human HSP90α, purified human HSP90 alpha, 1 mM ATP added, 37° C. for two hours, OD655.

A word on the IC50: it is the concentration at which inhibition is half-maximal. A lower IC50 goes with inhibition by little substance. In the case of `Cc1ccc2cc1-c1cc(nc(N)n1)Sc1cccc(c1)OCCCCCO2` [Compound 25, 4-amino-23-methyl-13,19-dioxa-7-thia-3,5-diazatricyclo[18.3.1.1^2,6.1^8,12]hexacosa-1(24),2(25),3,5,8(26),9,11,20,22-nonaene], the IC50 was found to be 1.9 µM.

In the case of `Cc1cc(C)c2cc1C(=O)NCCCCNC(=O)CCSc1cc-2nc(N)n1` [Compound 6, 4-amino-19,21-dimethyl-7-thia-3,5,11,16-tetraazatricyclo[16.3.1.1^2,6]tricosa-1(21),2(23),3,5,18(22),19-hexaene-10,17-dione], the IC50 was determined as 3.4 µM.

The compound `Cc1cc(C)c2cc1C(=O)NCCCCCOc1cccc(c1)Sc1cc-2nc(N)n1` [Compound 20, 4-amino-22,24-dimethyl-13-oxa-7-thia-3,5,19-triazatricyclo[19.3.1.1^2,6.1^8,12]heptacosa-1(24),2(26),3,5,8(27),9,11,21(25),22-nonaen-20-one] came in with a concentration for half-maximal inhibition (IC50) of 1.5 µM.

In the case of `Cc1cc(C)c2cc1C(=O)NCCCCCNC(=O)CCSc1cc-2nc(N)n1` [Compound 1, 4-amino-20,22-dimethyl-7-thia-3,5,11,17-tetraazatricyclo[17.3.1.1^2,6]tetracosa-1(22),2(24),3,5,19(23),20-hexaene-10,18-dione], 0.8 µM corresponded to half-maximal inhibition (IC50).

On to `Cc1cc(C)c2cc1C(=O)NCCCCOc1cccc(c1)Sc1cc-2nc(N)n1` [Compound 19, 4-amino-21,23-dimethyl-13-oxa-7-thia-3,5,18-triazatricyclo[18.3.1.1^2,6.1^8,12]hexacosa-1(23),2(25),3,5,8(26),9,11,20(24),21-nonaen-19-one], for which half-maximal inhibition (IC50) was put at 2.7 µM.
